Test results from patent US10251892B2, “Bicyclic heterocycles as FGFR4 inhibitors” (Incyte Corporation, priority 2015, dated 2019).

Protein sequences, listed by entry. Tags and fused reporters are not part of them. Residues count along the entry.
UniProt P22607, 23-806: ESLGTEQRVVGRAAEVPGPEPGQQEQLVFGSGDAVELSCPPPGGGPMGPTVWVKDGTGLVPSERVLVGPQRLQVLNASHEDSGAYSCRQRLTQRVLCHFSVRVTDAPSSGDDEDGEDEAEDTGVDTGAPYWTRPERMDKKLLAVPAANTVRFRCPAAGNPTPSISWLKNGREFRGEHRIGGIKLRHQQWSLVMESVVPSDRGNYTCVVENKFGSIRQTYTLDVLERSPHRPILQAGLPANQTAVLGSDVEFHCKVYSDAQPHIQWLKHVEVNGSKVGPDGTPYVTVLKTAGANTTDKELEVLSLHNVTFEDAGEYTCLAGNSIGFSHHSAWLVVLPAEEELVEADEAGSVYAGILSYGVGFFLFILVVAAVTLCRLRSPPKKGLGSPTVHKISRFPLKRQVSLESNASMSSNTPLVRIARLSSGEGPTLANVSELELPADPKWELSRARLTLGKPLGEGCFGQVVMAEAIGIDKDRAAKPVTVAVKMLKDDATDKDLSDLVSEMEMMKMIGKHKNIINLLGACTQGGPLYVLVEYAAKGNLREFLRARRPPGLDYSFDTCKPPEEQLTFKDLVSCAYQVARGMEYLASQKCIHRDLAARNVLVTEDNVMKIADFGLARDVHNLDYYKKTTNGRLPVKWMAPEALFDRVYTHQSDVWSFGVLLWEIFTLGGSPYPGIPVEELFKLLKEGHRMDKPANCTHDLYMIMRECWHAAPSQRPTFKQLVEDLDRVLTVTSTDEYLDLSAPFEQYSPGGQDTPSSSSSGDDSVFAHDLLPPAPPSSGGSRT

Target: FGFR3 enzyme (Homo sapiens (Human), UniProt P22607)
Test: FGFR Enzymatic Assay (peptide phosphorylation, FRET), FGFR3
Type: biochemical
Description: The inhibitor potency of the exemplified compounds was measured in an enzyme assay that measures peptide phosphorylation using FRET measurements to detect product formation. Inhibitors were serially diluted in DMSO and a volume of 0.5 μL was transferred to the wells of a 384-well plate.
GraphPad prism3 was used to analyze the data.

`CCN1C(=O)N(c2c(F)c(OC)cc(OC)c2F)Cc2cnc(-c3ccc(C(=O)NC)nc3)cc21` [Example 24, 5-(3-(2,6-difluoro-3,5-dimethoxyphenyl)-1-ethyl-2-oxo-1,2,3,4-tetrahydropyrido[4,3-d]pyrimidin-7-yl)-N-methylpicolinamide] gave an FGFR1/FGFR3 greater than 5.
